Screening results (PubChem BioAssay)
HIV Env fusion: blocks HIV Env-driven cell-cell fusion; inhibition, % at 12.3 µM; hit rate 1.1% among 360,000; HeLa-JRFL Env/CEM21 cell fusion, luciferase;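 active = mean replicate inhibition score of at least 50 and every replicate individually at or above 50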
PGC1a acetyl inh: lowers PGC1a acetylation signal in U2OS cells | hit rate 0.17% among 350,000 | inhibition, % at 15.6 µM | AlphaScreen anti-acetyl-lysine; with virally co-expressed GCN5 acetyltransferase | AID 651687;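 active = every replicate shows inhibition of at least 40%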
miR122 inh: blocks miR-122 activity in Huh7 sensor cells | Huh7 miR-122 Renilla luciferase sensor, 48 h; neutral wells = 0, positive control = 100 | activation (reporter increase), % at 12.5 µM | hit rate 0.3% among 340,000;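 active = mean replicate activation score at least 90 and every replicate individually at or above 90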;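 note: higher luciferase means less miR-122 activity so hits act as miR-122 inhibitors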
FN deposit inh: fibronectin deposition inhibition. AH1F fibroblasts, Alexa488-fibronectin deposition fluorescence, overnight. inhibition, % at 12.6 µM. hit rate 0.086% among 350,000. AID 743247;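 active = mean inhibition across replicates of 30% or more, regardless of how many single replicates reach that level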
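Schedule: 1 h cell adhesion before compound, then overnight fibronectin incubation; test system: AH1F fibroblast monolayer depositing Alexa488-labelled fibronectin into matrix; quantity: 10000 AH1F cells per well; probe or stimulus: fluorescent fibronectin at 24 nM final; signal: fluorescence, ex 485 nm, em 525 nm; evaluation: percent inhibition as loss of matrix-bound fibronectin fluorescence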
Cneo AK release: causes C. neoformans cell lysis. lysis activity, % at 15 µM. AID 651654. hit rate 0.2% among 360,000. adenylate kinase release luminescence, 4 h; normalised: neutral wells 0, clomiphene wells 100;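 active = mean lysis activity across replicates of at least 80%, whatever share of replicates individually reach that level; inactive = mean lysis activity below 80%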
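Assay system: log-phase C. neoformans yeast / Quantity: yeast cell density of 5 × 10^6 cells/mL / Medium: fresh YPD growth medium / Compound: single dose / Timing: static 4 h at 37 °C with compound, 1 h detection / Measured by: adenylate kinase release luminescence / Read-out: lysis from increased AK signal / Benchmarks: Clomiphene as positive lysis control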
Yeast UUG start: alters start codon recognition fidelity in yeast. S. cerevisiae UUG-firefly luciferase reporter, luminescence/redox ratio. activity score, % at 18.7 µM. 0.13% of 350,000 active. AID 602363;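 active = replicate mean at a twofold rise or more, about +100% in these data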;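 also: firefly luciferase made from a UUG start codon reports start codon fidelity; reporter light over untreated wells divided by growth signal over untreated wells; some hits fall short of that in this replicate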
Each line names hits and unclear results; the compound was inactive in the other large screens; ! = a repeat was not active; [ ] = remark or other dose. Hits are enriched below; roughly 1.5% of the tested compounds scored in any of these assays.

CC(=O)c1ccc([C@H]2C[C@@]34CN(C(=O)OC(C)(C)C)S(=O)(=O)[C@H]3C[C@H]2O4)cc1	HIV Env fusion 67.7
COc1cc(C2C3=C(COC3=O)Oc3cc4c(cc32)OCO4)cc(OC)c1OC(C)=O (stereo not given)	miR122 inh 100.9 (no result: Cneo AK release, Yeast UUG start)
CCN(C1CCCCC1)S(=O)(=O)c1ccc(S(=O)(=O)N(CC(=O)Nc2ccccc2)C2CC2)cc1	HIV Env fusion 74.8 (no result: FN deposit inh)
O=C(CN(C1CC1)S(=O)(=O)c1ccc(S(=O)(=O)N2CCCCCC2)cc1)Nc1ccccc1	none (no result: HIV Env fusion, FN deposit inh)
O=C(Nc1ccccc1N1CCOCC1)C1(c2ccc(Cl)cc2)CCC1	PGC1a acetyl inh 40.7 (no result: miR122 inh, Cneo AK release, Yeast UUG start)
O=C(C[C@@H]1C[C@H]2c3cc(NC(=O)Nc4ccc(F)cc4)ccc3O[C@H]2[C@@H](CO)O1)NCC1CC1	none (no result: HIV Env fusion, PGC1a acetyl inh)
O=C(Nc1ccc(F)cc1)Nc1ccc2c(c1)[C@@H]1C[C@@H](CC(=O)N3CCCCC3)O[C@H](CO)[C@@H]1O2	none
O=C(C[C@@H]1C[C@H]2c3cc(NC(=O)Nc4ccc(F)cc4)ccc3O[C@H]2[C@H](CO)O1)NCC1CC1	HIV Env fusion 94.8[16.7 µM]
O=C(C[C@H]1C[C@@H]2c3cc(NC(=O)Nc4ccc(F)cc4)ccc3O[C@@H]2[C@@H](CO)O1)NCC1CC1	HIV Env fusion 94.8[16.7 µM]
O=C(C[C@@H]1C[C@@H]2c3cc(NC(=O)Nc4ccccc4)ccc3O[C@@H]2[C@H](CO)O1)NCC1CC1	none (no result: HIV Env fusion)
O=C(Nc1ccc(F)cc1)Nc1ccc2c(c1)[C@H]1C[C@@H](CC(=O)N3CCCCC3)O[C@H](CO)[C@H]1O2	HIV Env fusion 83.1[16.7 µM]
Cc1noc(C)c1S(=O)(=O)N(C)C[C@H]1Oc2ccc(NC(=O)Cc3cn(C)c4ccccc34)cc2CC(=O)N([C@H](C)CO)C[C@H]1C	none (no result: FN deposit inh)
Cc1cc(C)c2nc(N3CCCN(C(=O)c4ccco4)CC3)c(C#N)cc2c1	none (no result: FN deposit inh)
Cc1cc(C)c2nc(C(F)(F)F)nc(N3CCN(C(=O)c4ccco4)CC3)c2c1	HIV Env fusion 73.4
Cc1cc(C)n(C(=O)c2ccc([N+](=O)[O-])cc2N)n1	PGC1a acetyl inh 43.9
Cc1cc(C)n(/C(=C\N(C)C)C(=O)c2cccc([N+](=O)[O-])c2)n1	none (no result: PGC1a acetyl inh)
Cc1ccc(-c2nn(-c3ccccc3)cc2C(=O)N2CCOCC2)cc1	none
COCc1c(C(=O)N2CCN(Cc3ccc(C#N)cc3)CC2)oc2ccccc12	none (no result: PGC1a acetyl inh, miR122 inh)
C/C(=N\NC(=O)CCc1ccccc1)C1C(=O)c2ccccc2C1=O	none
C/C(=N\NC(=O)c1cccc(Cl)c1)C1C(=O)c2ccccc2C1=O	HIV Env fusion 56.9
CNC[C@H]1Oc2cc(Br)ccc2S(=O)(=O)N([C@H](C)CO)C[C@H]1C	Cneo AK release 90.7!
CNC[C@H]1Oc2cc(Br)ccc2S(=O)(=O)N([C@@H](C)CO)C[C@H]1C	none
CNC[C@@H]1Oc2cc(Br)ccc2S(=O)(=O)N([C@H](C)CO)C[C@H]1C	Cneo AK release 99.6!
O=C(C[C@H]1CC[C@H](NC(=O)c2ccccc2)[C@@H](CO)O1)Nc1ccc(-c2ccccc2)cc1	none
CC1=C(OC(=O)c2ccc(Br)cc2)C(C)(C)C(c2ccccc2)OC1=O (stereo not given)	none (no result: HIV Env fusion, FN deposit inh)
C[C@H](CO)N1C[C@H](C)[C@@H](CN(C)Cc2ccc(-c3ccccc3)cc2)Oc2c(NC(=O)c3cnccn3)cccc2C1=O	none (no result: HIV Env fusion, FN deposit inh)
CC(C)c1ccc(S(=O)(=O)Nc2ccc(-n3cnnn3)cc2)cc1	miR122 inh 103.2
CC(C)c1ccc(NS(=O)(=O)c2ccc(-n3cccn3)cc2)cc1	none
C[C@@H]1CN([C@@H](C)CO)C(=O)c2cccc(NC(=O)c3ccncc3)c2O[C@@H]1CN(C)C	miR122 inh 112.0[16.7 µM] (no result: HIV Env fusion, FN deposit inh)
C[C@@H]1CN([C@H](C)CO)C(=O)c2cccc(NC(=O)c3ccncc3)c2O[C@@H]1CN(C)CC1CCCCC1	none (no result: PGC1a acetyl inh, Cneo AK release, Yeast UUG start)
C[C@@H]1CN([C@@H](C)CO)C(=O)c2cccc(NC(=O)c3ccncc3)c2O[C@H]1CN(C)CC1CCCCC1	HIV Env fusion 99.4[16.7 µM] (no result: PGC1a acetyl inh)
O=C(O)COc1ccccc1C=NNC(=O)c1ccc(NS(=O)(=O)c2cccs2)cc1	none
CCCNC(=O)[C@H]1[C@H](CO)[C@H]2Cn3c(cccc3=O)[C@@H]1N2C(=O)Nc1cc(F)ccc1F	Cneo AK release 87.8 (no result: HIV Env fusion, PGC1a acetyl inh, FN deposit inh)
